Screening results deposited in PubChem by several laboratories.
ERp5 inh: blocks human ERp5 reductase activity on insulin. inhibition, % at 9.99 µM. ERp5 insulin aggregation, absorbance 650 nm, 90 min. 350,000 compounds, 0.05% hits. Q15084;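 active means mean replicate inhibition above about 25%, with every replicate also reaching it, limit read from the data, passing the limit was not always enough; inconclusive means only one of those two criteria met; inactive means neither criterion met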
INS-1E GSIS act: GLuc luminescence reporter in INS-1E cells, primary screen for activators of glucose-dependent secretion of insulin; INS-1E GLuc reporter insulin secretion, 2-3 h; activation, % at 16.6 µM; 370,000 compounds, 0.61% hits; AID 743287;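 active means lowest replicate activation of at least 40%, so every replicate reaches that level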
SMARCA2 act: SMARCA2 function activation, primary screen. MG213 cells, MMTV-luciferase reporter, dexamethasone, overnight. AID 652017. 370,000 compounds, 1% hits. activation, % at 9.1 µM; in the data active means activation above about 7.8%
Yeast UUG start: alters start codon recognition fidelity in yeast; S. cerevisiae UUG-firefly luciferase reporter, luminescence/redox ratio; activity score, % at 18.7 µM; actives 0.13% (n = 350,000); AID 602363;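 active = replicate mean at a twofold rise or more, about +100% in these data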;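 also: firefly luciferase made from a UUG start codon reports start codon fidelity; reporter light over untreated wells divided by growth signal over untreated wells; some hits fall short of that in this replicate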
PDI inh: PDI (human) enzyme inhibition | P07237 | PDI insulin aggregation turbidity, A650, 90 min | inhibition, % at 10 µM | 350,000 compounds, 0.052% hits | AID 588391;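 active means mean inhibition across replicates of 30% or more, whatever share of single replicates reach that level; inconclusive means mean inhibition below 30% while every single replicate reaches 30%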
NR1D1 modulator: modulators of human Rev-erb alpha DNA binding; Rev-erbα–FITC-DNA binding, fluorescence polarization, 90 min; 370,000 compounds, 0.79% hits; activity, % at 10 µM; P20393;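 active means activity above about 14%, limit read from the data; passing the limit was not always enough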
Numbers stand for hits; i = inactive; ? = inconclusive; nt = not tested or not shown. Sampled rows, rich in hits. Any-hit rate of the full collection: about 2.1%.

SMILES	ERp5 inh	INS-1E GSIS act	SMARCA2 act	Yeast UUG start	PDI inh	NR1D1 modulator
CCOC(=O)Cn1c(=NC(=O)c2sc3ccccc3c2Cl)sc2cc(S(N)(=O)=O)ccc21	nt	70.7	i	i	i	i
O=C(Cc1ccccc1)N1CC[C@@H]2[C@H](CO)Nc3ccc(Br)cc3[C@@H]21	i	i	nt	i	nt	nt
CC(=O)CSc1nc2c(c(=O)[nH]c(=O)n2C)n1Cc1ccccc1Cl	i	59.3	i	i	i	i
CC(C)Sc1nc2c(c(=O)[nH]c(=O)n2C)n1Cc1ccc(Cl)cc1	nt	77.0	i	i	i	i
CC(O)CSc1nc2c(c(=O)[nH]c(=O)n2C)n1Cc1ccccc1 (stereo not drawn)	i	i	i	i	i	i
Cn1c(=O)[nH]c(=O)c2c1nc(SCC(O)CCl)n2Cc1ccccc1 (stereo not drawn)	i	40.9	i	i	i	i
Cn1c(=O)[nH]c(=O)c2c1nc(Br)n2CC(O)COc1ccccc1 (stereo not drawn)	i	i	7.9	i	i	i
Cc1noc(C)c1NC(=O)N(C)C[C@@H]1Oc2ccc(NS(=O)(=O)c3ccc(Cl)cc3)cc2CC(=O)N([C@H](C)CO)C[C@H]1C	i	i	nt	i	nt	nt
CN(C)C(=O)c1ccc(-c2ccc3c(c2)[C@H]2[C@H](CCN2C(=O)C2CCC2)[C@@H](CO)N3C)cc1	i	i	nt	i	nt	nt
COCC(=O)N(C)C[C@@H]1Oc2ncc(-c3ccc(C#N)cc3)cc2C(=O)N([C@@H](C)CO)C[C@@H]1C	i	i	nt	i	nt	nt
CC(CN(C)Cc1ccccc1)OC(=O)c1ccccc1F (stereo not drawn)	nt	48.7	i	i	i	i
O=C(N/N=C/c1ccc(Cl)cc1Cl)Nc1ccccc1	nt	42.2	i	i	i	i
O=C(N/N=C/c1cccc(Cl)c1Cl)Nc1ccccc1	i	i	i	i	i	i
Cc1ccc(C(C)C)c(OCCNCCc2ccccc2)c1	?	137.2	i	i	i	i
Cc1ccc(C(C)C)c(OCCCNCc2cccnc2)c1	i	i	i	nt	i	i
Cc1cc(-c2nc3ncccc3o2)ccc1NC(=O)CC(C)C	i	nt	i	i	i	i
CC(C)CC(=O)Nc1cccc(-c2nc3ncccc3o2)c1	i	41.0	i	i	i	i
CC(=O)Nc1ccc(Cl)c(-c2nc3ncccc3o2)c1	i	57.5	i	i	i	i
O=C(c1ccccc1)c1ccc2nc(-c3ccc(NC(=O)c4ccccc4F)cc3)[nH]c2c1	nt	196.9	i	i	i	i
COc1ccc2c3c([nH]c2c1)[C@H](CO)N(C(=O)Nc1ccccc1F)CC31CN(C(=O)c2ccccc2F)C1	i	i	nt	nt	nt	nt
Cc1ccccc1OCCNc1cc(N2CC(C)NC(C)C2)ccc1[N+](=O)[O-] (stereo not drawn)	i	41.6	i	i	nt	i
CC1CN(c2ccc([N+](=O)[O-])c(NCCOc3ccccc3)c2)CC(C)N1 (stereo not drawn)	i	nt	i	i	i	i
CCOC(=O)c1cc2sccc2n1CC(=O)N1c2ccccc2CC1C (stereo not drawn)	nt	472.0	i	nt	i	i
CCOC(=O)c1cc2sccc2n1CC(=O)O	i	i	i	i	i	i
CO[C@H](CN(C)C(=O)C1CCOCC1)[C@@H](C)CN(C(=O)Nc1ccc(F)cc1)[C@H](C)CO	i	i	nt	nt	nt	nt
SMILES	ERp5 inh	INS-1E GSIS act	SMARCA2 act	Yeast UUG start	PDI inh	NR1D1 modulator
Cc1ccc2cc(CN(Cc3ccco3)C(=O)c3ccco3)c3nnnn3c2c1	i	i	i	i	i	i
CCc1ccc2c(c1)cc(CN(Cc1ccco1)C(C)=O)c1nnnn12	i	51.5	i	nt	i	i
COc1ccc(S(=O)(=O)N2CCC(C(=O)NCc3ccccn3)CC2)cc1OC	nt	46.1	i	i	i	i
COc1ccc(C2=NOC(C(=O)NCc3ccccn3)C2)cc1OC (stereo not drawn)	nt	94.4	i	i	i	i
CCSc1ccc(-c2nn(-c3ccccc3)cc2/C=C(/C#N)C(=O)NC)cc1	nt	64.7	i	i	i	i
CCCSc1ccc(-c2nn(-c3ccccc3)cc2/C=C(/C#N)C(=O)N2CCOCC2)cc1	i	i	i	nt	i	i
CCn1c(COc2ccc(C)cc2)nnc1SCC(=O)NNC(=O)c1ccc(OC)cc1	nt	i	i	i	i	i
COc1ccc(NC(=O)CSc2nnc(Cn3cnc([N+](=O)[O-])n3)n2C)cc1	nt	i	11.2	i	i	i
COc1ccc(C(=O)NNC(=O)CSc2nnc(COc3ccccc3OC)n2C)cc1	nt	40.9	i	i	i	i
Cc1ccccc1-c1ccc(C2[C@H]3CNC[C@@H]2N3S(=O)(=O)Cc2ccccc2)cc1 (stereo partly drawn)	i	i	nt	nt	nt	nt
Cc1cc(C)c(CSc2nnnn2-c2ccc(C(=O)O)cc2)c(C)c1	i	88.7	i	nt	i	i
Cc1cccc(CSc2nnnn2-c2ccccc2)c1	nt	i	i	nt	i	i
O=C(O)c1ccc(-n2nnnc2SCc2cccc(Br)c2)cc1	i	63.1	i	i	i	i
COCC#Cc1ccc2c(c1)O[C@@H](CN(C)Cc1ccccc1)[C@@H](C)CN([C@@H](C)CO)S2(=O)=O	i	i	nt	i	nt	nt
O=C(NC1CCCCC1)N[C@H]1C=C[C@@H](CC(=O)N2CCOCC2)O[C@H]1CO	i	i	nt	nt	nt	nt
O=C(Nc1ccncc1)C1CCN(S(=O)(=O)c2cccc(C(F)(F)F)c2)CC1	27.3	i	i	i	i	i
O=C(Nc1nc2ccccc2[nH]1)c1ccccc1O	i	i	i	nt	i	i
Cc1ccc(C)c(C(=O)Nc2nc3ccccc3[nH]2)c1	i	45.2	i	i	i	i
O=C(c1cccnc1)N1CC2(C1)[C@H](c1ccccc1)[C@H](CO)N2C(=O)c1cccnc1	i	i	nt	nt	nt	nt
C[C@H]1CN([C@@H](C)CO)C(=O)c2cc(NC(=O)Cc3ccccc3)ccc2O[C@@H]1CN(C)Cc1ccc(C(F)(F)F)cc1	i	i	nt	i	nt	nt
COc1cc(C(=O)OCCN2CCCCC2)ccc1O	nt	nt	i	i	i	i
COc1cc(C#CC#CCN2CCCCC2)ccc1O	nt	44.5	i	i	i	i
CCOc1ccc(CCNC(=O)COC(=O)c2cccs2)cc1OCC	i	i	i	i	i	i
CCOc1ccc(CCNC(=O)COC(=O)CSc2ccccc2C)cc1OCC	i	57.2	i	i	i	i
CCOc1ccc(CCNC(=O)COC(=O)/C=C/c2ccco2)cc1OCC	i	44.3	i	i	i	i
SMILES	ERp5 inh	INS-1E GSIS act	SMARCA2 act	Yeast UUG start	PDI inh	NR1D1 modulator
COc1ccc(CCNC(=O)COC(=O)c2ccc(C)s2)cc1OC	i	41.7	i	i	i	i
CCOc1ccc(CCNC(=O)/C=C/c2ccco2)cc1OCC	i	i	i	i	i	i
CCOc1ccc(CCNC(=O)COC(=O)c2ccc(C)s2)cc1OCC	i	52.3	i	i	i	i
CCOc1ncccc1C(=O)OCC(=O)NCc1ccc2c(c1)OCO2	i	i	i	nt	i	i
CCOc1ccccc1C(=O)OCC(=O)NCc1ccc2c(c1)OCO2	i	46.7	i	i	i	i
CSc1ncccc1C(=O)OCc1ccccc1	nt	46.7	i	i	i	i
CCOc1ccc(CCNC(=O)COC(=O)c2cccnc2SC)cc1OCC	i	55.4	i	nt	i	i
